The values below come from PubChem BioAssay AID489030 (Sanford-Burnham Center for Chemical Genomics, 2010).

Amino acid sequences for entries named in this document (tags omitted).
UniProt O14727, whole entry: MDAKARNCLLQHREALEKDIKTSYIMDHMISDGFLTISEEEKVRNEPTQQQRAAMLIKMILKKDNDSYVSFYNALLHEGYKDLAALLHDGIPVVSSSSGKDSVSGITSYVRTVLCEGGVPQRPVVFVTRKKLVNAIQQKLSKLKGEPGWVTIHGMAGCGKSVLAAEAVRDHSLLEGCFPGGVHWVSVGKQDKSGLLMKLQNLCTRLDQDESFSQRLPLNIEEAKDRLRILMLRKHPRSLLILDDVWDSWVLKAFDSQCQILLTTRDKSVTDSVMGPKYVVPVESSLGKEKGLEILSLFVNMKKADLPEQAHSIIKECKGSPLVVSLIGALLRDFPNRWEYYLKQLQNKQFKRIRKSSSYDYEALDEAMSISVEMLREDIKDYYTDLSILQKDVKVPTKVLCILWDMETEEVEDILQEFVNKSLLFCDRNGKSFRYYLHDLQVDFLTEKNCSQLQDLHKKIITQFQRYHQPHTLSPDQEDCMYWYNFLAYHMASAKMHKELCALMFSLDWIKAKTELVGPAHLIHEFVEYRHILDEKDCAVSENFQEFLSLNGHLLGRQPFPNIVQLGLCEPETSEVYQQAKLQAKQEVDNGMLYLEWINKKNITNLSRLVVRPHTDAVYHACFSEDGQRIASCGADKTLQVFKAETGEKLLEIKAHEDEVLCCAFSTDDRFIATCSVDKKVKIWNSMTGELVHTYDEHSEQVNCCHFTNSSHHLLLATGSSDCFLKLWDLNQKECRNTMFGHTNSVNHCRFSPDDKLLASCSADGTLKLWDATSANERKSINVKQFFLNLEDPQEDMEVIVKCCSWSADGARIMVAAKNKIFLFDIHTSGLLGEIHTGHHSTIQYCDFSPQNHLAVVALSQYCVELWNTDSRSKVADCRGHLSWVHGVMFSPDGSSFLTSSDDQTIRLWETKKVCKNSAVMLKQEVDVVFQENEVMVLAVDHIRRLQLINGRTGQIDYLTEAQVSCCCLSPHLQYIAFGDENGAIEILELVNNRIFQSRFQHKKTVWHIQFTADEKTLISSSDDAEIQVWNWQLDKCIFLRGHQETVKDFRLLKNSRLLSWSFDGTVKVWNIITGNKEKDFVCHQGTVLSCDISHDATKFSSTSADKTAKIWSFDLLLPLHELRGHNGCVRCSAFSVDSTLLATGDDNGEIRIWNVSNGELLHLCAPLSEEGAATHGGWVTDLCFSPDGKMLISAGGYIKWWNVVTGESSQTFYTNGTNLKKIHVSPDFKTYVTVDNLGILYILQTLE

A word on the inhibition: it is the relative decrease from the control value, in per cent.

The entries are a selection whose mix differs from that of the whole data set. Some salts or complexes appear as unconnected parts, following the source record. Active and inactive are the calls of the source. Rule for the calls: active = inhibition of at least 40% at 20 µM; inactive = the rest.

This assay concerns the target Apoptotic protease-activating factor 1 (Homo sapiens) (UniProt O14727). Nature of the assay: blockers of Apaf-1-driven caspase-3 activation – biochemical, DEVD-Rh110 fluorescence, uHTS, primary screen (AID 489030).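 Note: plate controls were DMSO wells for no effect and DEVD-CHO caspase inhibitor wells for full effect.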 Conditions: reconstituted apoptosome caspase-3 activity, at 20 µM, active compounds read high.
As to `CP(=O)(OC12CC3CC(CC(C3)C1)C2)OC12CC3CC(CC(C3)C1)C2`, the inhibition is inactive: 19.5%.
To `CCOC(=O)c1ccc(NP(C)(=O)Oc2ccc(Cl)cc2)cc1` (stereo unspecified) belongs inactive: 7%; to `CP(=O)(Nc1ccc(Cl)cc1)Oc1ccc(F)cc1` (stereo unspecified), inactive: -0.947%; to `COc1ccccc1OP(C)(=O)Nc1ccccc1Br` (stereo unspecified), inactive: -4.9%.
Turning to `CC(C)(C)c1ccc(OP(C)(=O)O)cc1`, the inhibition is inactive: 5.7%.
Consider `CN(C)C(=O)c1c([N+](=O)[O-])cc([N+](=O)[O-])cc1[N+](=O)[O-]`, for which the inhibition is inactive: 0.381%.
With `COc1ccc(OP(C)(=O)Nc2ccc(Br)cc2)cc1` (stereo unspecified) the figure was inactive: 1.53%.
Turning to `CCN(CC)CC(O)COC(=O)C(O)(c1ccccc1)C1CCCCC1` (stereo unspecified), the inhibition is inactive: 5.51%.
Take `CCc1ccc(OP(C)(=O)Nc2cccnc2)cc1` (stereo unspecified): the inhibition was inactive: -4.74%.
For the compound `CP(=O)(Oc1ccccc1)N1CCOC1=O` (stereo unspecified), the inhibition is inactive: -1.68%.
With `O=C(OCCCN1CCCC1)C(O)(c1ccccc1)C1CCCCC1` (stereo unspecified), the inhibition was inactive: -11.1%.
With `COc1ccccc1OP(C)(=O)Nc1c(C)n(C)n(-c2ccccc2)c1=O` (stereo unspecified) the figure was inactive: -6.49%.
Turning to `CP(=O)(Nc1ccc2c(c1)OCCO2)Oc1ccccc1` (stereo unspecified), the inhibition was inactive: -17.1%.
With `Cc1ccccc1NP(C)(=O)Nc1ccccc1C` the figure was inactive: 10.5%; with `CP(=O)(Nc1ccc(SC(F)(F)F)cc1)Oc1ccc(F)cc1` (stereo unspecified), inactive: 5.59%; with `CCOP(C)(=S)SCC(=O)NC(C)(CC)C(=O)O` (stereo unspecified), inactive: 3.76%.
Regarding `O=[N+]([O-])c1cc([N+](=O)[O-])c(NCC2CCS(=O)(=O)C2)c([N+](=O)[O-])c1` (stereo unspecified), the inhibition is inactive: -0.736%.
As for `COc1ccc(OP(C)(=O)Nc2cccc(Br)c2)cc1` (stereo unspecified), the inhibition was inactive: 6.77%.
With `COc1ccc(NP(C)(=O)Oc2ccccc2OC)cc1` (stereo unspecified) the figure was inactive: -5.09%.
To `CN(C)CCOC(=O)C(O)(c1ccccc1)C1CCCCC1` (stereo unspecified) belongs inactive: 8.28%; to `CCN(CC)CCCOC(=O)C(O)(c1ccccc1)C1CCCCC1` (stereo unspecified), inactive: -1.62%; to `CCCCCOc1ccc(NP(C)(=O)Oc2ccc(Cl)cc2Cl)cc1` (stereo unspecified), inactive: 23.9%.
On to `O=[N+]([O-])c1cc([N+](=O)[O-])c(OC2CCCCC2O)c([N+](=O)[O-])c1` (stereo unspecified), for which the inhibition was inactive: 3.59%.
With `CP(=O)(Nc1ccccc1)Oc1ccc(F)cc1` (stereo unspecified) the figure was inactive: -15.4%.
Regarding `COc1ccc(OP(C)(=O)Nc2ccc(SC(F)(F)F)cc2)cc1` (stereo unspecified), the inhibition was inactive: 6.08%.
To `CCOC(=O)c1ccc(NP(C)(=O)Oc2ccc(F)cc2)cc1` (stereo unspecified) belongs inactive: 1.01%; to `O=C(OCCN1CCN(CCOCc2ccccc2)CC1)C(O)(c1ccccc1)c1ccccc1`, inactive: -12%; to `O=C(OC1CN2CCC1CC2)c1ccc([N+](=O)[O-])cc1` (stereo unspecified), inactive: -2.38%.
In the case of `COc1ccc2c(c1O)-c1c(O)c(OC)cc3c1[C@H](C2)[N+](C)(C)CC3.O=[N+]([O-])c1cc([N+](=O)[O-])c([O-])c([N+](=O)[O-])c1[O-]`, the inhibition was inactive: 15%.
Take `CC(C)c1ccc(OP(C)(=O)Nc2ccc(SC(F)(F)F)cc2)cc1` (stereo unspecified): the inhibition is inactive: 32.2%.
Turning to `CP(=O)(Nc1ccccc1F)Oc1ccccc1` (stereo unspecified), the inhibition is inactive: -4.56%.
